## Apparent affinities of Ab-14 variants for a coronavirus HR2 peptide

Binding partner: SARS-CoV-2 spike HR2 peptide, sequence PDVDLGDISGINAS.

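The parent was found by panning a naive human phage display library on the peptide. Designed CDR sequences, proposed from the first random library and measured here. Several design methods are mixed in this list. The scFvs were displayed on barcoded MATa yeast, the peptide on MATalpha yeast. After mating in shaken culture at 30 °C for 16 h, diploids were selected and their barcode pairs sequenced. The ratio of observed to expected reads was calibrated, replicate by replicate, on BCL2-family standards whose Kd was known from biolayer interferometry. Each pool was mated in six replicate cultures.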

Ab-14 is the parent antibody, in scFv form: VH, then the linker GGGGSGGGGSGGGGS, then VL. The heavy chain is unchanged in all variants.
VH: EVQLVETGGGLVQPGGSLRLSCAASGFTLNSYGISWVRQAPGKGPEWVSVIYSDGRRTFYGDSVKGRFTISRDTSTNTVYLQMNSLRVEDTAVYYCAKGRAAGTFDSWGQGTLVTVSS
VL: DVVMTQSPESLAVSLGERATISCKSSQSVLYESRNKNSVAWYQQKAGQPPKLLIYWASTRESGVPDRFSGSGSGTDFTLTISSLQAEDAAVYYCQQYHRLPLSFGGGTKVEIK

Variants are written as CDR1, CDR2 and CDR3 of the light chain (limits as in the source). Parent: KSSQSVLYESRNKNSVA, WASTRES, QQYHRLPLS.
Numbers give log10(Kd / nM), so 0 is 1 nM and 3 is 1 µM. Smaller is tighter.
Replicates are averaged; those with no signal do not enter the mean.
An entry "not detected" has no value in the source: the pair was not observed among the diploids in any replicate. This suggests poor binding but is not conclusive.
The parent sequence was in this pool as ten entries: three were never detected, three once, and four in most replicates, with averages from 0.34 to 2.37.
In the paper, a design with two or fewer of six values counts as a poor binder.
Three control strains display no target. For all light chain designs, 4% of the pairings with them gave a signal, with a median of 2.64 and one signal in twenty below 1.59, so weak values seen in few replicates may be background.
Values of this round are not directly comparable with the first-round values of the same sequences.

CDR-L1	CDR-L2	CDR-L3	log10 Kd (nM), mean	detected
KLSMSVRMESFVKDNVA	ENSTRED	QDYHRLPLS	2.61	3/6
KVSQAVLYGSRNTNSVA	WASTRES	QQYHRLLLS	not detected	0/6
KIYQSGPYESRNKNSVA	SASTRES	QQYHRLPLS	0.54	6/6
NISIEDYSEHNNANNVA	STDCRCD	QQYFMLPLM	0.48	6/6
KVSLSVELESRLKNSVA	HASTREE	QQYHRLPLS	-0.02	6/6
KSSQSWLYESRNKNSVA	QASTREQ	QQYHRLPLS	0.06	6/6
MISQLYNMGQFAINSVA	QASIRNE	QQYDRLPLE	1.63	6/6
KLSQSWLYESRNTNSVA	NASTRES	QQYHRLPLS	-0.34	6/6
GVDHTMESGKQAPNSIA	NAEQLTI	QQYQRLPLS	0.42	6/6
TVKALLEMFAQDKHSVA	EAVERAS	QQYHRLPLG	1.21	6/6
NLVSKADYMDSERQNIA	NMDTRNT	QQYFHLPLT	0.22	6/6
KFSQSVLFESRNKNSVA	DASFRES	QQYHRLPLS	-0.11	6/6
KMSQSVLYESCNKNSVA	SASTRES	QQYHRLPLS	0.55	6/6
SMSNLQEVPSVWKNSIA	DAEHVEY	QQYSRLPLT	0.12	6/6
MISQLFNMGQFAINSVA	QASQRNE	QQYDRLPLM	0.71	6/6
QFDLHHKQIETIESAVA	ETSVRAA	QSYDRLPLS	0.66	6/6
KVSQSFLMESRNKNSVA	EASTRES	QQYHRLPLS	-0.06	6/6
MIAQTLRGVGRNKNSVA	NAQTRES	QHYHRLPLS	not detected	0/6
TLSSSMDMTSRNVNSVA	DLTTRGN	QQYHRLPLS	0.16	6/6
SFSQSVLYESVHKNNVA	QTSTRED	QQYDHLPLS	0.36	6/6
KSSQSVLYEERNKNSVA	WASTRES	QQYHRLPLS	2.13	6/6
KSSQSVLYESYNKNSVA	GAQTRES	QQYHRLPLA	2.82	3/6
KVSQGMWYESRNKNSVA	DASQRES	QQYHRLPLQ	-0.17	6/6
KFSQSVLYESRTSNMVA	NASTRED	QQYHRLPLS	1.32	6/6
KMQQLKWYEQRNKNSVA	DGSTRES	QQYHRLPLS	0.19	6/6
KLTNVTGTEKVHGNNVA	EMETRER	QQYNRLPLA	0.72	6/6
KLPQSHLYESRMKNSVA	NASTRES	QQYHRLPLS	0.39	6/6
HMSMLTRGGMRQRNSVA	QMTTREN	QQYDRLPLS	1.94	5/6
KVMGEMDYESRNKNSVA	HASERES	QQYHRLPLQ	0.29	6/6
KITWSQYNWTSNYQAVA	EQNMRAT	QSYYRLPFS	1.00	6/6
KIMQSLNYESFNKNSVA	GQETREQ	QSYHRLPLS	1.62	1/6
KLSQSELYESRWKNSVA	NASTRES	QQYHRLPLS	0.65	6/6
IFSQGVMVGWLTRNSVA	NSETRES	QQYDRLPLS	0.63	6/6
KLYQSWLYESRNKNSVA	NASQRLS	QQYHRLPLS	0.18	6/6
KLDQSVLYESRNKNSVA	AASTRES	QQYHRLPLS	0.11	6/6
IISQSVMGESRNKNSVA	QTSERNY	QQYDRLPLS	0.34	6/6
KSSQSVMMESRNKNSVA	DASTRES	QQYHRLPLS	0.12	6/6
KLSQSDGYESRNKNSVA	NASTRES	QQYHRLPLS	-0.41	6/6
KSSQSVLYESRNKNSVA	AASTRES	QQYQRLPLS	-0.42	5/6
KVPQSELYESRNKNSVA	NASTRES	QQYHRLPLS	-0.25	6/6
KSSQSVLYESRAKNSIA	WASTRES	QQYHHLPLC	0.99	1/6
KIGHGLTTESRNKNSVA	QTETRVS	QHYHRLPLS	0.62	6/6
QLSMNLEIYGQEQWAVA	MGEMRTE	QQYHKLPLS	0.77	1/6
KSSQSQLYESRWKNSVA	GASQRES	QQYHRLPLS	0.79	6/6
HISQSFMTESVNRNNVA	HQSTREQ	QQYDRLPLS	0.04	6/6
MMSQVTGSGTRHRNNVA	QTSMRES	QQYDRLPLI	0.85	6/6
KLGATMNTEMTKRNNVA	DLVTREN	QQYFRLPLS	0.36	6/6
KSSTSYLYESRNKNSVA	EPSTRES	QQYHRLPLS	not detected	0/6
KLWLAMDMFQGEANAVA	DQQLTRD	QQYARLPLS	2.10	4/6
KFSQSVLGEQRNKNSVA	DISTRES	QQYHRLPLS	0.05	6/6
KSSQSVLYESRNKNSVA	WASTRES	QQYHRLPGS	not detected	0/6
KLEQSWLYESRNKNSVA	NASTRES	QQYHRLPLS	-0.05	6/6
FMSQSVLMEGRNDNSVA	SASTRED	QQYHRLPLS	0.12	6/6
TISQMTSLFSQTINNVA	EVSTREE	QQYDRLPLA	0.31	6/6
KLSQSVLYESRNKNSVA	NASTREV	QQYHRLPLM	-0.15	6/6
TLTQSVGMQSHNKNSVA	DLSTRGS	QQYHRLPLS	0.17	6/6
KLSGSMLYQSRNKNNVA	EASQREQ	QQYHRLPLS	-0.17	6/6
MVTQMAMTGMTNKRSVA	NAEMREK	QQYHRLPLI	0.38	6/6
SISQLLNFELKIGNNVA	QMETRVN	QQYDRLPLS	1.42	3/6
KSSQSVLPQSRNKNSVA	DASTRES	QQYHRLPLS	0.26	6/6
KLRNDFMENKQNQSNIA	AHHESIK	QQYSMLPLS	2.04	4/6
ISQQSAEYEGRQKKSVA	WASTREN	QQYHRLPLS	not detected	0/6
MISGSVMSEQRLKNSVA	QTTTRES	QQYDRLPLS	1.08	6/6
KLSATYRFESQNKSNIA	EMTTRES	QCYHRLPLS	1.82	1/6
KLQQGVEMESRNKNSVA	NASKREE	QQYHRLPLS	-0.06	6/6
KLVQSVLYESRNKNSVA	HASTRED	QQYHRLPLS	0.43	6/6
QFDTNLHYMGANKNSVA	EMTEKTI	QQYHRLPIE	1.33	6/6

Repeated from above, the 4 best binders with a signal in all replicates:

CDR-L1	CDR-L2	CDR-L3	log10 Kd (nM), mean	detected
KLSQSDGYESRNKNSVA	NASTRES	QQYHRLPLS	-0.41	6/6
KLSQSWLYESRNTNSVA	NASTRES	QQYHRLPLS	-0.34	6/6
KVPQSELYESRNKNSVA	NASTRES	QQYHRLPLS	-0.25	6/6
KLSGSMLYQSRNKNNVA	EASQREQ	QQYHRLPLS	-0.17	6/6

Source: Li et al. 2023 (doi:10.1038/s41467-023-39022-2), MIT Lincoln Laboratory and A-Alpha Bio; data file from the FLAb repository.